Literature values as cited in patent US12171782B2 (priority 2020, dated 2024).

Molecular target: PLP of SARS-CoV-2 (Severe acute respiratory syndrome coronavirus 2, UniProt P0DTD1)
Settings: among 13 antiviral natural compounds and 78 known anti-viral drugs; cited from earlier work

NC(=O)c1ncn([C@@H]2O[C@H](CO)[C@@H](O)[C@H]2O)n1 [ribavirin]
binding affinity to PLP core structure: highest binding affinity
